# Source: patent publication US20250099548A1, “PHARMACEUTICAL COMPOSITION FOR PREVENTING OR TREATING DEGENERATIVE BRAIN DISEASES, CONTAINING GLUCAGON-LIKE PEPTIDE-1 AND INTERLEUKIN-1 RECEPTOR ANTAGONIST” (GI INNOVATION, INC., priority 2022, published 2025)
# “Also recorded” adds a separate entry of the source.
# Tests used:
# Format in all cases: in vivo, mouse
# [1] = test system: Tg-APP/PS1 mice; assay: DCX immunochemical staining of hippocampal DG region; details: Example 2; intraperitoneal, 4 times for 2 weeks
# Description: DCX (doublecortin) is continuously expressed during the 2-3 weeks during which immature neurons mature, and is expressed in […]. For this reason, DCX is used as a marker of neurogenesis, indicating the degree of neuronal differentiation and after the metaphase of newly generated neurons.
# In order to confirm the effect of GI210B1 on the decreased neurogenesis in the DG (dentate gyrus) region of the hippocampus of Tg mice, the Tg-APP/PS1 mice administered with GI210B1 (Tg+GI210B1), the wild type mice (WT) as a normal group, and the Tg-APP/PS1 mice (Tg or Tg+Veh) as a control group were sacrificed, and then the brain tissue was extracted, and the DG region of the hippocampus was stained with DCX.
# In the same manner as in Example 1.4.2 above, the mice from each group were sacrificed, and then the brain tissue was extracted, and the DG region of the hippocampus was stained with DCX.
# [2] = test system: Tg-APP/PS1 mice; assay: MAP-2 immunofluorescence staining of hippocampal CA1 region; details: Example 2; GI210B1, GI210B1C1, GI210B1CN at 1.2, 0.7778, 1.1745 mg/kg intraperitoneal, 4 times for 2 weeks
# Description: Long-term memory is regulated at synapses between axons of neurons and dendrites of target neurons, and the microstructure of neurons is greatly influenced by the state of neuron health. Changes in the microstructure of dendrites of neurons are important for maintaining memory. The microstructure of the dendrites of such neurons can be observed as an image by staining with an anti-MAP-2 antibody (GeneTex, CatNo. GTX133109) located in the dendrites.
# Therefore, in order to determine the mechanism of action of cognitive function improvement and memory recovery effects of GI210B1, the Tg-APP/PS1 mice administered with GI210B1 (Tg+GI210B1), the wild type mice (WT) as a normal group, and the Tg-APP/PS1 mice (Tg or Tg+Veh) as a control group were sacrificed, and then the brain tissue was extracted, and the microstructural status of the dendrites (dendritic process) of the hippocampus was analyzed.
# In the same manner as in Example 1.4.1 above, the mice from each group were sacrificed, and then the brain tissue was extracted, and the microstructural status of the dendrites of the hippocampus was analyzed.
# [3] = test system: Tg-APP/PS1 mice; assay: Aβ plaque deposition in brain tissue, thioflavin S staining; details: Example 2; GI210B1, GI210B1C1, GI210B1CN at 1.2, 0.7778, 1.1745 mg/kg intraperitoneal, 4 times for 2 weeks
# Method: Accordingly, in order to confirm the effect of treating Alzheimer's disease by intraperitoneal administration of GI210B1, the Tg-APP/PS1 mice administered with GI210B1 (Tg+GI210B1) and the Tg-APP/PS1 mice (Tg+Veh), a control group, were sacrificed, and then the brain tissue was extracted, and Aβ plaques were stained using thioflavin S, and then the degree of Aβ plaque deposition in the parietal cortex, hippocampus, and piriform cortex regions was analyzed.
# Specifically, for immunohistochemical analysis using thioflavin S staining, the brain was collected after perfusion for the mouse with 4% paraformaldehyde, and then the brain was further fixed with 4% paraformaldehyde overnight at 4° C. The brain tissue sections were prepared by cutting the fixed brain tissue to a thickness of 40 m using a vibratome. […] At that time, the stained image was analyzed using MetaMorph Microscopy Automation & Image Analysis software (Molecular device). The amount of plaque was quantified and expressed as the number of plaques per unit area and the sum of the plaque areas. […]
# In the same manner as in Example 1.3 above, the mice were sacrificed, and then the brain tissue was extracted, and the degree of Aβ plaque deposition in the parietal cortex, hippocampus, and piriform cortex regions was analyzed using thioflavin S, which stains Aβ plaques. […]
molecule,measurement,setting,value
"GI210B1C1: fusion protein dimer comprising an IgG4 Fc domain and an IL-1 receptor antagonist; SEQ ID NO: 24 (protein, dimer; IgG4 Fc-IL-1Ra) ESKYGPPCPPCPAPEAAGGPSVFLFPPKPKDQLMISRTPEVTCVVVDVSQEDPEVQFNWYVDGVEVHNAKTKPREEQFNSTYRVVSVLTVLHQDWLNGKEYKCKVSNKGLPSSIEKTISKAKGQPREPQVYTLPPSQEEMTKNQVSLTCLVKGFYPSDIAVEWESNGQPENNYKTTPPVLDSDGSFFLYSRLTVDKSRWQEGNVFSCSVLHEALHNHYTQKSLSLSLGGGGGSGGGGSGGGGSGGRPSGRKSSKMQAFRIWDVNQKTFYLRNNQLVAGYLQGPNVNLEEKIDVVPIEPHALFLGIHGGKMCLSCVKSGDETRLQLEAVNITDLSENRKQDKRFAFIRSDSGPTTSFESAACPGWFLCTAMEADQPVSLTNMPDEGVMVTKFYFQEDE",number of DCX positive cells in the DG region of the hippocampus,[1],"statistically significantly increased compared to the control group (Tg+Veh), and was recovered to a level similar to that of the normal group (WT+Veh)"
same,expression level of MAP-2 in the CA1 region of the hippocampus,[2],higher than that of the control group (Tg+Veh); also recorded: recovered to a level similar to that of the normal group
same,amount of plaque deposited in the brain (number of plaques per unit area and sum of plaque areas),[3],tended to be reduced; also recorded: statistically significantly reduced compared to the control group (Tg+Veh)
